Results reported in ChEMBL document CHEMBL5357010, “Amine Basicity of Quinoline ATP Synthase Inhibitors Drives Antibacterial Activity against Pseudomonas aeruginosa” (ACS Med Chem Lett, 2024).

Experiment: Selectivity ratio of IC50 for Pseudomonas aeruginosa 9027 electron transport chain to IC50 for Pseudomonas aeruginosa ATP synthase
Format: toxicity

**Q.** For c1ccc(CSc2nc3ccccc3cc2CNCCc2cnc[nH]2)cc1, which “Ratio IC50” value is on record?
**A.** 7
